# Data taken from patent US3994974A, “α-Aminomethylbenzyl alcohol derivatives” (Yamanouchi Pharmaceutical Co., Ltd., priority 1972, dated 1976).
# Tested on: β1 /β2
# Test: Selectivity (ratio of β1/β2), ED50bpm vs. ED50 in anesthetized dogs
# Type: in vivo, Mongrel dogs
compound,measurement,value
"COc1ccc(CC(C)NCC(O)c2ccc(O)c(NC=O)c2)cc1 (single isomer, unassigned) [Example 22, 3-formylamino-4-hydroxy-α-[N-(1-methyl-2-p-methoxyphenylethyl)aminomethyl]benzyl alcohol [A] . 1/2 fumarate]",Selectivity (ratio of β1/β2),18.9

# Counter-ions that a name gives are not always drawn.
